Experimental findings from BindingDB's records for doi:10.1016/0028-3908(94)90059-0 (University of Alberta, 1994) are described below.

The chains behind the UniProt entries cited, without tags or fusion partners.
UniProt P30994, whole entry: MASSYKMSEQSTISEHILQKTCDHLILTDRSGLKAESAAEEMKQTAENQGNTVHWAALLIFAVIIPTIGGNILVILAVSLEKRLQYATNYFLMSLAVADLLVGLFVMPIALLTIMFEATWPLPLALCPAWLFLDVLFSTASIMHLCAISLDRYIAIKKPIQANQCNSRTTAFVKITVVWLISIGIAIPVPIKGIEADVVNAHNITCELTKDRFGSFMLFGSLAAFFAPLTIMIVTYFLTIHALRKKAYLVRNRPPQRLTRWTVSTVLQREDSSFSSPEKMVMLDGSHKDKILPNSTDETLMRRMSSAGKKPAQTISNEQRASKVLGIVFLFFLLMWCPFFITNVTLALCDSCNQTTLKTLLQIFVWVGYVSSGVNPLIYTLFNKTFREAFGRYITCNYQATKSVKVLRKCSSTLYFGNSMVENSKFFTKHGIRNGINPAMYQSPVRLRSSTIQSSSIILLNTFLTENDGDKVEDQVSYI
UniProt P32305, whole entry: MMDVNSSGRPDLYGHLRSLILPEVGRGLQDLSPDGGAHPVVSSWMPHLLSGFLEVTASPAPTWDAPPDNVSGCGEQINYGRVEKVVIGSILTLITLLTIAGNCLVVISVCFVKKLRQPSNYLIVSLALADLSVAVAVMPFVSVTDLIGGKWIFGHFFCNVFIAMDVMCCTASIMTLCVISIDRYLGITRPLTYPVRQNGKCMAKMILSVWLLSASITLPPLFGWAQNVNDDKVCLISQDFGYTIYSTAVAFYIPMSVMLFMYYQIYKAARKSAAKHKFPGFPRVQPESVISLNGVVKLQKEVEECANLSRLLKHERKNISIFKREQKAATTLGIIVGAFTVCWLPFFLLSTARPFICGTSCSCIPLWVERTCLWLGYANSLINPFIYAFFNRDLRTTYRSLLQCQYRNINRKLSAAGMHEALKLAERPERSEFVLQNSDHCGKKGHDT
UniProt P14842, whole entry: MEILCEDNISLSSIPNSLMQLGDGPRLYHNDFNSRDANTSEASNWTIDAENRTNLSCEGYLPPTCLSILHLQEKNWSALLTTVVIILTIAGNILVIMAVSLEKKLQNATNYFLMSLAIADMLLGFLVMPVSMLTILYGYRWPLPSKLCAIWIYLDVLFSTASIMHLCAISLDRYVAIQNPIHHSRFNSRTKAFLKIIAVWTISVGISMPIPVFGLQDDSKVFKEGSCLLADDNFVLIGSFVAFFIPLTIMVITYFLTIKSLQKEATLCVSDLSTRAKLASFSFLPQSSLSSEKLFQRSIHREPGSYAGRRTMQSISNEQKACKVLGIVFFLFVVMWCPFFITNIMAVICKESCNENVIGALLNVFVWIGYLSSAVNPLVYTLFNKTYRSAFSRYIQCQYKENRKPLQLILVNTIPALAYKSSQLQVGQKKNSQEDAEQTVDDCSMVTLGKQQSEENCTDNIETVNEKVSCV
UniProt P08908, whole entry: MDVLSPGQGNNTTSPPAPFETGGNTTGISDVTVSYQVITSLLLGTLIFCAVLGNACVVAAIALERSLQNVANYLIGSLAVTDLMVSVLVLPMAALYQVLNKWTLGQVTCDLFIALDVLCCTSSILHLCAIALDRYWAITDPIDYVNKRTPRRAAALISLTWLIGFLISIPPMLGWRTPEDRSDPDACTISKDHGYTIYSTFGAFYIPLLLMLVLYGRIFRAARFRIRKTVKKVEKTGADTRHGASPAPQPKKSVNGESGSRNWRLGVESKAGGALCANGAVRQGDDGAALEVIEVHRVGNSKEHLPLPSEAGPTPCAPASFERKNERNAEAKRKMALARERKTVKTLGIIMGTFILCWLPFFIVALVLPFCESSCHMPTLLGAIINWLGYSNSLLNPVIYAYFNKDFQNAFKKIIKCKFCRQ
UniProt P35365, whole entry: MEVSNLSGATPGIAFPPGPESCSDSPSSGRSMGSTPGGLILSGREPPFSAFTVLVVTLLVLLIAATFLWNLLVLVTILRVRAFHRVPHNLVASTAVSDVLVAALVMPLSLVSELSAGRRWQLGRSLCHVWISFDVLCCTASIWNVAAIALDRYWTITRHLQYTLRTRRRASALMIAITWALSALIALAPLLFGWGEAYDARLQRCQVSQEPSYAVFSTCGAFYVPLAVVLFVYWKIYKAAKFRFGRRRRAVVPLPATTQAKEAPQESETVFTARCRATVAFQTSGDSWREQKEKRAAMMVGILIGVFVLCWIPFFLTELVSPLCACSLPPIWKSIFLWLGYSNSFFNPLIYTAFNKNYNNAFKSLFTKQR
UniProt P31388, whole entry: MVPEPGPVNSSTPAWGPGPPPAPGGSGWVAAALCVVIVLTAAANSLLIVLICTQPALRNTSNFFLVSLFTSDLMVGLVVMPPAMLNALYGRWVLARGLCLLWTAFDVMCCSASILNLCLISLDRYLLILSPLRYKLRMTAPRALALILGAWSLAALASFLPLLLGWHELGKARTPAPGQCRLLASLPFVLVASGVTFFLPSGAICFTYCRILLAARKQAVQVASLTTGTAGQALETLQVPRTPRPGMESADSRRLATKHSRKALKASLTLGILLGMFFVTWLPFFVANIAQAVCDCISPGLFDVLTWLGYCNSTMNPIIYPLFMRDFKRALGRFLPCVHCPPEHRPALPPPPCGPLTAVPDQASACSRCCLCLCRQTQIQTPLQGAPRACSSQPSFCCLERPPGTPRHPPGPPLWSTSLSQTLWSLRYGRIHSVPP
UniProt P11614, whole entry: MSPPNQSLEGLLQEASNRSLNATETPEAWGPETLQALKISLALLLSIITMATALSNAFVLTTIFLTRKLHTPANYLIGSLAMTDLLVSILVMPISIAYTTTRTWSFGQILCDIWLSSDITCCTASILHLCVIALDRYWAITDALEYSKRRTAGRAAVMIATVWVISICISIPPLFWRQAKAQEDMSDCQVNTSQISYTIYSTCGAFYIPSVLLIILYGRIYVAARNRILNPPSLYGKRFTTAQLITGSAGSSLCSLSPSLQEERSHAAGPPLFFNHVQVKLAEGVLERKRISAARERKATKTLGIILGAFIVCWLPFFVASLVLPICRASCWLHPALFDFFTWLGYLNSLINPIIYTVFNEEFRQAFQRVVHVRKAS

Several values for one entry are separate records, joined by “and”; a condition that tells them apart may be missing. Equal entries are not always repeated. A value given as a limit tells only on which side of the number the result lay.

The target of test [1] is T1, 5-hydroxytryptamine receptor 2C (Rattus norvegicus, UniProt P08909).
T1 sequence (P08909 whole entry): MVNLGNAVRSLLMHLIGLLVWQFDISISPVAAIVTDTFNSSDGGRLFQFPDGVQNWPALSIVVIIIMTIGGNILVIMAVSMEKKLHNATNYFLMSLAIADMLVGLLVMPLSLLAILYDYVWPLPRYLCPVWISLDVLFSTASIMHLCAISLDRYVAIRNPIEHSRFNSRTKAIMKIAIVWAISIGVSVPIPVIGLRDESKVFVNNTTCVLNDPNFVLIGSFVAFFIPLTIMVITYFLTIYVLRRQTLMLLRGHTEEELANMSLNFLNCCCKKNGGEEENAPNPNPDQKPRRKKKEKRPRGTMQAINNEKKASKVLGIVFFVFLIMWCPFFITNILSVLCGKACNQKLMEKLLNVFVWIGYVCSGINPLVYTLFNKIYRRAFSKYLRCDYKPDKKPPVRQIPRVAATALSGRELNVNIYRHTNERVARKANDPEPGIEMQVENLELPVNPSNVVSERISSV

For test [2], the target named is 5-hydroxytryptamine receptor 2B (Rattus norvegicus, UniProt P30994).
Test [3] has as its target 5-hydroxytryptamine receptor 7 (Rattus norvegicus, UniProt P32305).
In test [4] the target is 5-hydroxytryptamine receptor 2A (Rattus norvegicus, UniProt P14842).
The target in test [5] is 5-hydroxytryptamine receptor 1A (Homo sapiens, UniProt P08908).
In test [6] the target is 5-hydroxytryptamine receptor 5B (Rattus norvegicus, UniProt P35365).
In test [7] the target is 5-hydroxytryptamine receptor 6 (Rattus norvegicus, UniProt P31388).
The target of test [8] is 5-hydroxytryptamine receptor 1D (Canis lupus familiaris, UniProt P11614).

Consider `COc1cc(CC(C)N)c(OC)cc1Br` (stereo not drawn) [2-(4-Bromo-2,5-dimethoxy-phenyl)-1-methyl-ethylamine((-)-DOB)], for which, in test [1], affinity was put at a Ki of 60.2 nM.
`O=C(CCCN1CCC2(CC1)C(=O)NCN2c1ccccc1)c1ccc(F)cc1` [8-[4-(4-fluorophenyl)-4-oxidanylidene-butyl]-1-phenyl-1,3,8-triazaspiro[4.5]decan-4-one]: the Ki – broadly, the dissociation constant of the complex between target and ligand, obtained from inhibition or displacement – is 2140 nM and 1050 nM in test [1]; > 10000 nM and 3310 nM in test [2].
Take `CCN(CC)C(=O)[C@@H]1C=C2c3cccc4[nH]cc(c34)C[C@H]2N(C)C1` [(4R,7R)-N,N-diethyl-6-methyl-6,11-diazatetracyclo[7.6.1.0^{2,7}.0^{12,16}]hexadeca-1(16),2,9,12,14-pentaene-4-carboxamide]: the Ki was 200 nM in test [3]; 7.07 nM and 12 nM in test [4].
`CNS(=O)(=O)Cc1ccc2[nH]cc(CCN(C)C)c2c1` [Sumax] gave a Ki in test [5] of 1020 nM.
`CSc1ccc2c(c1)C(N1CCN(C)CC1)Cc1ccccc1S2` (stereo not given) [methanesulfonic acid;1-methyl-4-(3-methylsulfanyl-5,6-dihydrobenzo[b][1]benzothiepin-5-yl)piperazine]: the Ki is 145 nM and 43.6 nM in test [6]; 1.81 nM and 0.38 nM in test [7].
For the compound `COc1ccc2[nH]cc(CCN)c2c1` [tryptamine, 5-Methoxy], the Ki is 6.3 nM in test [8] and 7.07 nM in test [2].
